According to ChEMBL document CHEMBL1133341, “ORL1 receptor ligands: structure-activity relationships of 8-cycloalkyl-1-phenyl-1,3,8-triaza-spiro[4.5]decan-4-ones” (Bioorg Med Chem Lett, 2000):

Key:
[1] = Ratio of binding affinity for kappa receptors to that of rat ORL-1
[2] = Ratio of binding affinity for mu receptors to that of rat ORL-1

Row | Compound | Selectivity [1] | Selectivity [2]
1 | CC(C)[C@H]1CC[C@H](N2CCC3(CC2)C(=O)NCN3c2ccccc2)CC1 | 6.8 | 1.8
2 | O=C1NCN(c2ccccc2)C12CCN(C1CCCCCCCC1)CC2 | 16 | 13
3 | O=C1NCN(c2ccccc2)C12CCN(C1CCCCCCCCCCC1)CC2 | 3.1 | 0.3
4 | C[C@H]1CC[C@@H](N2CCC3(CC2)C(=O)NCN3c2ccccc2)CC1 | 8 | 9.1
5 | CCC[C@H]1CC[C@@H](N2CCC3(CC2)C(=O)NCN3c2ccccc2)CC1 | 29 | 3.6
6 | CC(C)[C@H]1CC[C@@H](N2CCC3(CC2)C(=O)NCN3c2ccccc2)CC1 | 330 | 40
7 | O=C1NCN(c2ccccc2)C12CCN([C@H]1CC[C@@H](C3CCCCC3)CC1)CC2 | 19 | 1
8 | O=C1NCN(c2ccccc2)C12CCN(C1CCCCCCCCC1)CC2 | 26 | 8.2
9 | O=C1NCN(c2ccccc2)C12CCN(C1CCCCCC1)CC2 | 2.5 | 11
10 | O=C1NCN(c2ccccc2)C12CCN(C1CCCCCCC1)CC2 | 4.8 | 7
11 | CC(C)(C)[C@H]1CC[C@@H](N2CCC3(CC2)C(=O)NCN3c2ccccc2)CC1 | 11 | 2
12 | O=C1NCN(c2ccccc2)C12CCN(C1CCCCC1)CC2 | 4 | 6.3
13 | O=C1NCN(c2ccccc2)C12CCN([C@@H]1Cc3cccc4cccc1c34)CC2 | 49 | 9.8
14 | O=C1NCN(c2ccccc2)C12CCN(C1CCCCCCCCCC1)CC2 | 1.7 | 0.4
